Only a part is listed here, and it is no random draw. Results filed as inconclusive are left out. Entries that show only a call come without a potency. The source made the active and inactive calls. Calls come from the whole dose curve; as a rule, active = well fitted inhibition curve with a large enough effect; inconclusive = small, poorly fitted or top-dose-only effect, or another doubt; inactive = no such curve, though single readings can be large or run the other way.
Assay: qHTS of GLP-1 Receptor Inverse Agonists: Cytotox Screen;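 note: loss of luciferase light is scored as toxicity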
Conditions: HEK293 cAMP-luciferase reporter cells, luminescence, 24 h; series mostly up to 38.3 µM
Excerpt: The overall goal of this project was to develop a novel assay for discovering small molecule ligands for class B1 G protein-coupled receptors (GPCRs). Very few agonists (or inverse agonists) with generally weak activity for this entire group of physiologically important receptors are known to date. To establish proof-of-principle that this critical bottleneck can be overcome with a suitable screening approach, our studies focused on the class B1 receptor for glucagon-like peptide-1 (GLP-1R), a potential therapeutic target for diabetes and neurodegenerative disease.
The assay was developed using a cell-based functional readout. Toward this goal, stably transfected HEK293 cell clones were established that co-express (i) a cAMP-responsive luciferase reporter gene, and (ii) constitutively active GLP-1R that upon ligand interaction inhibit (inverse agonists) the luciferase activity. In addition, two control cell lines were developed: (i) one that express only the cAMP-responsive reporter gene to enable initial exclusion of GLP-1R independent effects of candidate probes; and (ii) one with the reported gene cloned with another constitutively active orphan receptor GPR119 to enable exclusion of GLP-1R independent inhibitor effects of candidate inverse agonists.
To that end, this assay was optimized for 1536-well format and screened against the MLSMR. Then the same collection was run in this cytotoxicity assay where inhibition was the undesired outcome.
NIH Molecular Libraries Probe Production Network [MLPCN]
NIH Chemical Genomics Center [NCGC]
PI Name: Martin Beinborn, Tufts Medical Center
Six ul of cell suspension (200 cells/uL in DMEM + 10% Nu serum + 1% pen-strep) is dispensed in a white solid 1536-well plate. The plates are incubated for 12 hours at 37 deg C at 5% CO2 followed by addition of 23 nL compounds. After 24 hr incubation at 37 deg C and 5% CO2, 3 uL of luciferase assay detection reagent is added. A luminescence read is obtained on the PerkinElmer Viewlux after 12 min incubation at room temperature.
Potency is the fitted concentration of half-maximal effect.

SMILES | activity change, negative = inhibition | Potency
COc1ccccc1-c1ccccn1.O=[N+]([O-])c1cc([N+](=O)[O-])c(O)c([N+](=O)[O-])c1 | inactive | 
CCN(CC)CCCOC(=O)C(O)(c1ccccc1)c1ccccc1 | inactive | 
CCOC(=O)c1ccc(NP(C)(=O)Oc2ccccc2)cc1 (stereo not given) | inactive | 
COc1ccccc1OP(C)(=O)Nc1ccc(C)cc1 (stereo not given) | inactive | 
Cc1ccc(NP(C)(=O)Oc2ccccc2)c(C)c1 (stereo not given) | inactive | 
COc1ccccc1OP(C)(=O)Nc1cc(Cl)ccc1C (stereo not given) | inactive | 
COc1ccc(OP(C)(=O)Nc2cccc(F)c2)cc1 (stereo not given) | inactive | 
Cc1cc(C)cc(OP(C)(N)=O)c1 (stereo not given) | inactive | 
O=[N+]([O-])c1cc([N+](=O)[O-])c(Nc2cccnc2)c([N+](=O)[O-])c1 | inactive | 
Cc1cccc(C)c1OP(C)(N)=O (stereo not given) | inactive: -0.671% [at 7.66 µM] | 
CP(=S)(Nn1cnnc1)Oc1ccccc1 (stereo not given) | inactive | 
COc1ccccc1OP(C)(=O)Nc1ccccc1 (stereo not given) | inactive | 
CP(=O)(Nc1ccccc1Br)Oc1ccccc1 (stereo not given) | inactive | 
CCOP(C)(=S)SCC(=O)NC(C)C(=O)O (stereo not given) | inactive | 
CCOC(=O)c1ccc(NP(C)(=O)Oc2ccc(OC)cc2)cc1 (stereo not given) | inactive: 2.92% [at 1.53 µM] | 
CP(=O)(Nc1ccccn1)Oc1ccc(Cl)cc1 (stereo not given) | inactive | 
Cc1cccc(C)c1OP(C)(=O)Nc1ccc(SC(F)(F)F)cc1 (stereo not given) | inactive | 
CP(=O)(Nc1ccc(SC(F)(F)F)cc1)Oc1ccc(Cl)cc1 (stereo not given) | inactive | 
CP(=O)(Oc1ccccc1)OC(c1ccccc1)C(F)(F)F (stereo not given) | inactive | 
CCc1ccc(OP(C)(=O)N2CCN(c3ccc([N+](=O)[O-])cc3)CC2)cc1 (stereo not given) | inactive | 
CP(=O)(NC(=O)Nc1ccccc1)Oc1ccccc1 (stereo not given) | inactive | 
Cc1cc(C)cc(OP(C)(=O)Nc2ccc(SC(F)(F)F)cc2)c1 (stereo not given) | inactive | 
O=[N+]([O-])c1cc([N+](=O)[O-])c(-c2cnn(-c3ccccc3)c2)c([N+](=O)[O-])c1 | inactive | 
CN(Cc1cccnc1)C(=O)COc1ccc(Cl)c(Cl)c1.O=[N+]([O-])c1cc([N+](=O)[O-])c(O)c([N+](=O)[O-])c1 | inactive | 
COc1ccccc1OP(C)(=O)Nc1c(C)cccc1C (stereo not given) | inactive | 
CN1CCCCC1COC(=O)C1(O)c2ccccc2CCc2ccccc21 (stereo not given) | inactive | 
CP(=O)(Nc1ccc(SC(F)(F)F)cc1)Oc1ccccc1 (stereo not given) | inactive | 

SMILES | activity change, negative = inhibition | Potency
CCCOc1ccc(NP(C)(=O)Oc2ccc(Cl)cc2)cc1 (stereo not given) | inactive | 
CC1=C2N=C(C=C3N=C(C(C)=C4[N-][C@@](C)([C@@H]5N=C1[C@](C)(CCC(=O)NC[C@@H](C)OP(=O)([O-])O[C@H]1[C@@H](O)[C@@H](n6cnc7cc(C)c(C)cc76)O[C@@H]1CO)[C@H]5CC(N)=O)[C@@](C)(CC(N)=O)[C@@H]4CCC(N)=O)[C@@](C)(CC(N)=O)[C@@H]3CCC(N)=O)C(C)(C)[C@@H]2CCC(N)=O.[C-]#N.[Co+3] | inactive | 
CC1=NCCc2c1[nH]c1ccccc21.O=[N+]([O-])c1cc([N+](=O)[O-])c(O)c([N+](=O)[O-])c1 | inactive | 
CP(=O)(Nc1cccc(Br)c1)Oc1ccccc1 (stereo not given) | inactive | 
Cc1cc(C)cc(OP(C)(=O)Nc2ccccn2)c1 (stereo not given) | inactive | 
Cc1ccc(C)c(NP(C)(=O)Oc2ccccc2)c1 (stereo not given) | inactive | 
COc1ccccc1OP(C)(=O)Nc1cccc(Br)c1 (stereo not given) | inactive | 
Cc1cc(C)cc(OP(C)(=O)Nc2ccc(C)cc2C)c1 (stereo not given) | inactive | 
O=C(OCCN1CCN(CCOCc2ccccc2)CC1)C(O)(c1ccccc1)c1ccccc1 | inactive | 
CC(C)c1ccc(OP(C)(=O)Nc2ccc(SC(F)(F)F)cc2)cc1 (stereo not given) | inactive | 
CP(=O)(Nc1ccccc1F)Oc1ccccc1 (stereo not given) | inactive | 
CCN(CC)CCCOC(=O)C(O)(c1ccccc1)C1CCCCC1 (stereo not given) | inactive | 
Cc1c([N+](=O)[O-])cc([N+](=O)[O-])c(Br)c1[N+](=O)[O-] | inactive | 
CP(=O)(Nc1ccccc1)Oc1ccc(F)cc1 (stereo not given) | inactive | 
COc1ccc(OP(C)(=O)Nc2ccc(SC(F)(F)F)cc2)cc1 (stereo not given) | inactive | 
CCOC(=O)c1ccc(NP(C)(=O)Oc2ccc(F)cc2)cc1 (stereo not given) | inactive: 6.76% [at 1.53 µM] | 
O=[N+]([O-])c1ccc(OP2(=O)COCCO2)cc1 (stereo not given) | inactive | 
Cc1c(C(c2ccc3c(c2)OCO3)c2c(C)n(C)n(-c3ccccc3)c2=O)c(=O)n(-c2ccccc2)n1C.O=[N+]([O-])c1cc([N+](=O)[O-])c(O)c([N+](=O)[O-])c1 | inactive | 
COc1ccc(OP(C)(=O)Nc2cccc(Br)c2)cc1 (stereo not given) | inactive | 
COc1ccc(NP(C)(=O)Oc2ccccc2OC)cc1 (stereo not given) | inactive | 
CN(C)CCOC(=O)C(O)(c1ccccc1)C1CCCCC1 (stereo not given) | inactive | 
CP(=O)(Nc1ccc2c(c1)OCCO2)Oc1ccccc1 (stereo not given) | inactive | 
O=[N+]([O-])c1cc([N+](=O)[O-])c(C(F)(F)F)c([N+](=O)[O-])c1O | inactive | 
Cc1ccccc1NP(C)(=O)Nc1ccccc1C | inactive | 
CP(=O)(Nc1ccc(SC(F)(F)F)cc1)Oc1ccc(F)cc1 (stereo not given) | inactive | 
CCOP(C)(=S)SCC(=O)NC(C)(CC)C(=O)O (stereo not given) | inactive | 
CP(=O)(Nc1ccc(Cl)cc1)Oc1ccc(F)cc1 (stereo not given) | inactive | 

SMILES | activity change, negative = inhibition | Potency
CC(C)(C)c1ccc(OP(C)(=O)O)cc1 | inactive | 
COc1ccccc1OP(C)(=O)Nc1ccccc1Br (stereo not given) | inactive: -6.06% [at 7.66 µM] | 
CN(C)C(=O)c1c([N+](=O)[O-])cc([N+](=O)[O-])cc1[N+](=O)[O-] | inactive | 
CCN(CC)CC(O)COC(=O)C(O)(c1ccccc1)C1CCCCC1 (stereo not given) | inactive | 
COc1ccc(OP(C)(=O)Nc2ccc(Br)cc2)cc1 (stereo not given) | inactive | 
CP(=O)(Oc1ccccc1)N1CCOC1=O (stereo not given) | inactive | 
CCc1ccc(OP(C)(=O)Nc2cccnc2)cc1 (stereo not given) | inactive: -0.754% [at 0.307 µM] | 
COc1ccccc1OP(C)(=O)Nc1c(C)n(C)n(-c2ccccc2)c1=O (stereo not given) | inactive | 
O=C(OCCCN1CCCC1)C(O)(c1ccccc1)C1CCCCC1 (stereo not given) | inactive | 
Nc1ccc2c(ccc3cccnc32)n1.O=[N+]([O-])c1cc([N+](=O)[O-])c(O)c([N+](=O)[O-])c1 | inactive | 
CP(=O)(OC12CC3CC(CC(C3)C1)C2)OC12CC3CC(CC(C3)C1)C2 | inactive | 
CCOC(=O)c1ccc(NP(C)(=O)Oc2ccc(Cl)cc2)cc1 (stereo not given) | inactive | 
CP(=O)(OCCOc1ccccc1)OCCOc1ccccc1 | inactive | 
CCCCCCCCCCCCCCCC1C[N+](C)(C)CCOP(C)(=O)O1 (stereo not given) | inactive | 
CP(=O)(Nc1ccc(Cl)cc1Cl)Oc1ccccc1 (stereo not given) | inactive | 
Cc1cc(C)cc(OP(C)(=O)Nc2cccc(C(F)(F)F)c2)c1 (stereo not given) | inactive | 
COc1ccc(OP(C)(=O)Nc2ccccc2Br)cc1 (stereo not given) | inactive | 
COc1ccccc1OP(C)(=O)Nc1ccc(C)c(C)c1 (stereo not given) | inactive | 
O=[N+]([O-])c1cc([N+](=O)[O-])c(Nc2ccccn2)c([N+](=O)[O-])c1 |  | active: 12.6 µM
Cc1c(NP(C)(=O)Oc2ccc(C(C)C)cc2)c(=O)n(-c2ccccc2)n1C (stereo not given) | inactive | 
CCc1ccc(OP(C)(=O)O)cc1 | inactive | 
CP(=O)(Nc1ccccn1)Oc1ccccc1 (stereo not given) | inactive | 
COc1ccccc1OP(C)(=O)Nc1ccc(C)cc1C (stereo not given) | inactive | 
COc1ccccc1OP(C)(=O)Nc1ccc(Br)cc1 (stereo not given) | inactive | 
CN(C)CCOC(=O)C(O)(c1ccccc1)C1CCCC1 (stereo not given) | inactive | 
COc1ccc(OP(C)(=O)Nc2ccccn2)cc1 (stereo not given) | inactive | 

— PubChem BioAssay AID624418 (National Center for Advancing Translational Sciences (NCATS), 2012)
